Data on one compound can be found in paper PMC6199744, “Development of Chemical Proteomics for the Folateome and Analysis of the Kinetoplastid Folateome” (ACS Infectious Diseases, 2018).

Chains of the proteins cited; added tags and fusions are not shown. Lines headed by an entry give the natural chain unless they say otherwise; changes in a name come on top.
UniProt P07382: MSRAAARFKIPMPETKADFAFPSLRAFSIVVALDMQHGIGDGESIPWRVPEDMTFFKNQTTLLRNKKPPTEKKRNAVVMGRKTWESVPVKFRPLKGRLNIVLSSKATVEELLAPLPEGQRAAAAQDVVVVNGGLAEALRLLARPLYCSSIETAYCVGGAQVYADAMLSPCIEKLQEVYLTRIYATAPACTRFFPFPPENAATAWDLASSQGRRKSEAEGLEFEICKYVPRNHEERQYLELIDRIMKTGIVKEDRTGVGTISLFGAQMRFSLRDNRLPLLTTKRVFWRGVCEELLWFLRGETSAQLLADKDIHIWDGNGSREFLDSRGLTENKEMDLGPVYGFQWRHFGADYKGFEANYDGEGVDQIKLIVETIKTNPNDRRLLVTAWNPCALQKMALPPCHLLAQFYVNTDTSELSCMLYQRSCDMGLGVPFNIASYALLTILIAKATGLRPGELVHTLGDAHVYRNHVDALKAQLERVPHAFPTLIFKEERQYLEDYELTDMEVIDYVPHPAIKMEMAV

For assay [1], the target named is T1, DHFR-TS (Leishmania major, UniProt P07382). Nature of the assay: biochemical. The conditions noted are these: read-out: % Inhibition of protein binding to bead, DHFR-TS, L. major.
For assay [2], the target named is T2, PTR1 (Leishmania major, UniProt Q01782).
T2 sequence (Q01782 1-288): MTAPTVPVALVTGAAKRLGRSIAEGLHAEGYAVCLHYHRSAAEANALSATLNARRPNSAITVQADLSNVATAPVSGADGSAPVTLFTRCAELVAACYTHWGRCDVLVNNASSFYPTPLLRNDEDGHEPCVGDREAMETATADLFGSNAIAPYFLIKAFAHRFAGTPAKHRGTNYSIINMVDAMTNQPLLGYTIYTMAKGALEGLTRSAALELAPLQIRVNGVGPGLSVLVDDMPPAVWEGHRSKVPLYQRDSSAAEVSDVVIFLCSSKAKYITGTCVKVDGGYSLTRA
Description: biochemical. Particulars: read-out: % Inhibition of protein binding to bead, PTR-1, L. major.

Assay [3] addresses T1, DHFR-TS. The format is binding. The conditions noted are these: bead mixture; L. major lysate.
Assay [4] concerns the target T2, PTR1. The format is binding. Details: endogenous in cells; host or cells: L. major Friedlin promastigote lysate. The conditions noted are these: bead mixture; L. major lysate.

As for `CN(Cc1cnc2nc(N)nc(N)c2n1)c1ccc(C(=O)N[C@@H](CCC(=O)O)C(=O)O)cc1` [MTX, methotrexate], the inhibition (usually the percentage by which the read-out fell short of the control) at 100 µM was found to be 93% at DHFR-TS [1] and 75% at PTR1 [2]. Moreover, the “competition for DHFR-TS (Figure 8a)” value at DHFR-TS [3] was “competed for DHFR-TS”. For the same compound, the “competition for PTR1 (Figure 8a)” value on PTR1 [4] is “outcompeting for PTR1”.
